This experiment concerns the target Melanin-concentrating hormone receptor 1 [E4Q,A5T] (Human, UniProt Q99705, A5T/E4Q). In words: Radioligand Binding Assay. The settings on record: pH 7.4. As to the method: An in vitro binding assay was used to determine the compound Ki value or ability to antagonize binding of a peptide agonist to the human melanin concentrating hormone receptor (MCHR1). Membranes from stably transfected HEK-293 cells expressing a mutated (E4Q, A5T) hMCHR1 receptor were prepared by dounce homogenization and differential centrifugation. […] Inhibitory constants were determined by nonlinear least squares analysis using a four parameter logistic equation.

By UniProt entry, the sequences of proteins in these tests, tags left out. Chains listed by the source or under a name are the forms on record and can include a tag or linker. Residues count along the entry.
UniProt Q99705, 1-353 with tags or gaps A5T/E4Q: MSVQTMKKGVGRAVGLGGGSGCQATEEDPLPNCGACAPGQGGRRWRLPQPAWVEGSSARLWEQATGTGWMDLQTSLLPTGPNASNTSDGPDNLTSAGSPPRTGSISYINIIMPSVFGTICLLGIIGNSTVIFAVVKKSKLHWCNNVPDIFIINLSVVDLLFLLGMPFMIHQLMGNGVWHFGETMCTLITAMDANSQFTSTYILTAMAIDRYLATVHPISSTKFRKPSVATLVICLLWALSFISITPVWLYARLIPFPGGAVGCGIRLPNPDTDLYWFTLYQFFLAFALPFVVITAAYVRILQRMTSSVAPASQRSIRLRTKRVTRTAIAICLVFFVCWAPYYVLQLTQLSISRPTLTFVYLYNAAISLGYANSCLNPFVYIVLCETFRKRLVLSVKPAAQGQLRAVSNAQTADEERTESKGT

In BindingDB's records for patent US9499482 (Bristol-Myers Squibb Co., 2016) one finds Ki data, which are given here for six compounds.

The term Ki denotes the dissociation constant of the complex between target and ligand, obtained from inhibition or displacement.

As to `COc1cc(N2CC[C@H](Oc3ccc(C4CC4)cc3)C2=O)ccc1OCCN[C@H]1CC[C@H](O)CC1` [US9499482, 26], the affinity corresponds to a Ki of 5 nM. Turning to `CCc1cc(N2CC[C@H](Oc3ccc(C4CC4)cc3)C2=O)ccc1OCCN1CCNC(=O)C1` [US9499482, 52], affinity was put at a Ki of 7 nM. The Ki values of the last two compounds are within 1.5-fold of each other.

Regarding `O=C1[C@@H](Oc2ccc(C3CC3)cc2)CCN1c1ccc(OCCN2CCCC2)c(Cl)c1` [US9499482, 92], the inhibition constant (Ki) came out at 0.75 nM.

`O=C1[C@H](Oc2ccc(C3CC3)cc2)CCN1c1ccc(OCCN2CCCC2)c(Cl)c1` [US9499482, 93] came in with a Ki of 28 nM. For `COc1cc(N2CCC(Oc3ccc(C4CC4)cc3)C2=O)ccc1OCCN1CC(O)(C2CC2)C1` (stereo unspecified) [US9499482, 157] the value was 0.4 nM.

`O=C1C(Oc2ccc(C3CC3)cc2)=CCN1c1ccc2c(cnn2CCN2CCCC2)c1` [US9499482, 252]: the affinity corresponds to a Ki of 0.4 nM.
